The numbers were not newly measured in patent US20030178031A1, “Method for cancer pain treatment” (Du Pen, Inc., priority 1999, published 2003), which cites them from elsewhere.

For this data set the following is noted: human, in vivo.

Turning to Choline magnesium trisalicylate, the effect on platelets result is on record as “minimal or no effect on platelets”.
